{"source": "patent US20170333564", "proteins": {"B1": {"name": "Insulin receptor β-subunit (IRK), purified, from Enzo Life Sciences (protein)", "chain": "RKRQPDGPLGPLYASSNPEYLSASDVFPCSVYVPDEWEVSREKITLLRELGQGSFGMVYEGNARDIIKGEAETRVAVKTVNESASLRERIEFLNEASVMKGFTCHHVVRLLGVVSKGQPTLVVMELMAHGDLKSYLRSLRPEAENNPGRPPPTLQEMIQMAAEIADGMAYLNAKKFVHRDLAARNCMVAHDFTVKIGDFGMTRDIYETDYYRKGGKGLLPVRWMAPESLKDGVFTTSSDMWSFGVVLWEITSLAEQPYQGLSNEQVLKFVMDGGYLDQPDNCPERVTDLMRMCWQFNPKMRPTFLEIVNLLKDDLHPSFPEVSFFHSEENKAPESEELEMEFEDMENVPLDRSSHCQREEAGGRDGGSSLGFKRSYEEHIPYTHMNGGKKNGRILTLPRSNPS"}}, "target": "T1, P2, myr-KYCCSRK (hBVR-based peptide)", "T1 chain": "KYCCSRK", "data": [{"protein": "B1", "values": [{"measurement": "IRK kinase assay in vitro, peptide as substrate and activator", "result": "P2 is both a substrate and activator of IRK kinase activity in vitro"}]}]}
